The values below come from patent US8742113B2, “Furanone derivative” (SBI Biotech Co., Ltd., priority 2011, dated 2014).

Amino acid sequences for entries named in this document (tags omitted). A change or cut given only in a name is not applied to a line headed by its entry.
UniProt O00311: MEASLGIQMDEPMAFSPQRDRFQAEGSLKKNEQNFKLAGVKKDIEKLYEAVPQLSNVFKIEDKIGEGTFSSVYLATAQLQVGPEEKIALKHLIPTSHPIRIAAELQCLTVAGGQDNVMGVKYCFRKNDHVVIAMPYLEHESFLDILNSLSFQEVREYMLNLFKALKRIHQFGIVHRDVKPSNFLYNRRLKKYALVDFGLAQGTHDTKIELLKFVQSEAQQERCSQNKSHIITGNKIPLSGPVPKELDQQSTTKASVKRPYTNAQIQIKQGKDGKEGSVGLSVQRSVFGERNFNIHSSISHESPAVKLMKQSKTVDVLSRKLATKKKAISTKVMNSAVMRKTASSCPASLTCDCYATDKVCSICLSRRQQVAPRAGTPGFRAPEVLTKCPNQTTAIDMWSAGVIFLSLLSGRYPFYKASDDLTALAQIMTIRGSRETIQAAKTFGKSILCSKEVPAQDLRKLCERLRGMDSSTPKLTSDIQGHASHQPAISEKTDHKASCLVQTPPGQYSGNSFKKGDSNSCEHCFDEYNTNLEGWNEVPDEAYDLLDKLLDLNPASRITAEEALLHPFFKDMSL

The test concerns the target human Cdc7/human ASK complex protein (Homo sapiens (Human), UniProt O00311). The experiment in a line: Inhibitory effect on Cdc7 protein kinase (MSA assay kit). The note with it: FITC-labeled MCM2 peptide substrate, reaction 5 hours at room temperature, read-out: Test Example 1 Cdc7 IC50 value. In kind it is biochemical. On the procedure:
[Inhibitory Effect on Cdc7 Protein Kinase]
Measurement of kinase activity was carried out using an MSA assay kit (QuickScout Screening Assist™ Kit, Carna Biosciences, Inc.).
Assay buffer (20 mM HEPES, 0.01% Triton X-100™, 2 mM dithiothreitol, pH 7.5) was used to prepare a substrate mixture solution comprising 4 μM of a kinase-reaction substrate (FITC-labeled MCM2 peptide), 40 mM MgCl2, and 20 μM ATP.
The enzyme supplied in the kit (human Cdc7/human ASK complex protein) was diluted in the assay buffer so as to be at 7 nM, thereby preparing an enzyme solution. […]
The kinase reaction was performed in wells of a polypropylene 384-well plate in which 5 μl of each of the drug solutions or of a solvent (assay buffer containing 4% DMSO), 5 μl of the substrate mixture solution, and 10 μl of the enzyme solution were mixed. […] The percent inhibition of each reaction was determined using a LabChip EZ Reader II system (manufactured by Caliper Life Sciences), according to the protocol provided with the assay kit. […]
The IC50 value of a tested compound was calculated by regression analysis of the percent inhibition values versus the (logarithmic) concentrations of the tested compound.

Regarding `CCOC(=O)C1=C(N2CCCCCC2)O/C(=C\c2c[nH]c3ncccc23)C1=O` [Example 63], the IC50 (as a rule, the midpoint of a concentration-inhibition curve) is 6 nM.
